Laboratory results as given in US11707512B2, “Cancer vaccine composition” (priority 2007, dated 2023).

Columns and labels:
[1] = system: WT1187 peptide-pulsed B-LCLs
[2] = system: peptide-pulsed autologous B-LCL cells

**Q.** Which results are given for `CSCC[C@H](NC(=O)[C@@H](N)CCCNC(=N)N)C(=O)N[C@@H](Cc1ccccc1)C(=O)N1CCC[C@H]1C(=O)N[C@@H](CC(N)=O)C(=O)N[C@@H](C)C(=O)N1CCC[C@H]1C(=O)N[C@@H](Cc1ccc(O)cc1)C(=O)N[C@@H](CC(C)C)C(=O)O` [WT1126]?
**A.** cytotoxic activity against 0206K562 cells (WT1-expressing, HLA-A*0206-positive) compared with K562 cells (and KH88, JY cells) (0206K562 cells): significant cytotoxic activity; cytotoxic activity against non-WT1-expressing and/or HLA-A*0206-negative cells (0206K562 cells): no cytotoxic activity; inhibition of cytotoxic activity of peptide-specific CTLs by anti-HLA class I antibody [1]: can be inhibited; cytotoxic activity of peptide-induced CTLs against B-LCL cells pulsed with the inducing peptide, compared with non-pulsed B-LCL cells [2]: stronger cytotoxic activity
